Results on two molecules are retold here after PubChem BioAssay AID2520 (Sanford-Burnham Center for Chemical Genomics, 2010).

Chains of the proteins cited; added tags and fusions are not shown.
UniProt P35414, whole entry: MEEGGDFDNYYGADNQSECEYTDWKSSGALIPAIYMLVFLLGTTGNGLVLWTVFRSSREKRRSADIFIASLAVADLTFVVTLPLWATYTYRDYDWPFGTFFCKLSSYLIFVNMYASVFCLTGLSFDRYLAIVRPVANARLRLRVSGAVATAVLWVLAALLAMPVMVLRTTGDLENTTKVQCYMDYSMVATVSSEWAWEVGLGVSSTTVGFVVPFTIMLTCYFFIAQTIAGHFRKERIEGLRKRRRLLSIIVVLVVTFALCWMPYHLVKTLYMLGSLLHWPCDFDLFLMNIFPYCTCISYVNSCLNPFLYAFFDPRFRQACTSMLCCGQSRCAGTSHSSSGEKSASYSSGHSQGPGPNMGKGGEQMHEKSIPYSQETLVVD

The entries are a selection whose mix differs from that of the whole data set. Calls of active or inactive are those of the source.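 The calls were made as follows: active = activation more than six SD over the plate average, tested at 20 µM; inactive = the rest.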

The assay deals with Apelin receptor (Homo sapiens) (UniProt P35414). The experiment in a line: agonists of human apelin receptor APJ, primary screen, CHO-K1 cells, PathHunter beta-arrestin, luminescence (AID 2520). The conditions noted are these: at 20 µM, active compounds read high, 0% DMSO wells, 100% apelin. An outline of the steps: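 Assay system – PathHunter CHO-K1 APJ (AGTRL-1) beta-arrestin reporter cells · Compound – one dose, 20 µM compound, 1% DMSO · Timing – compound 90 min 25 °C, reagent 1 h · Measured by – luminescence from split beta-galactosidase complementation, Galacton Star/Emerald II substrate · Measure – beta-arrestin recruitment to APJ as agonist activity, luminescent signal · Benchmarks – DMSO vs Apelin-13 10 nM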
With `CCC(=O)N(c1ccccc1)C1(COC)CCN(CCc2cccs2)CC1`, the activation is inactive: 0.54%.
Next, `CCC(=O)N(c1ccccc1)C1(COC)CCN(CCn2nnn(CC)c2=O)CC1`: inactive: -2.74%.
